Measured values: the DeepSol protein solubility set

Test: soluble on expression in E. coli; label from the status in PepcDB or PDB records

Sequence | soluble on expression in E. coli
MAKGQSLQDPFLNALRRERVPVSIYLVNGIKLQGQIESFDQFVILLKNTVSQMVYKHAISTVVPSRPVSHHSNNAGGGTSSNYHHGSSAQNTSAQQDSEETE | soluble
QGEIAIAIPAHVRLVMVANDLPALTDPLVSDVLRALTVSPDQVLQLTPEKIAMLPQGSHCNSWRLGTDEPLSLEGAQVASPALTDLRANPTARAALWQQICTYEHDFFPRND | soluble
MAASRRLMKELEEIRKCGMKNFRNIQVDEANLLTWQGLIVPDNPPYDKGAFRIEINFPAEYPFKPPKITFKTKIYHPNIDEKGQVCLPVISAENWKPATKTDQVIQSLIALVNDPQPEHPLRADLAEEYSKDRKKFCKNAEEFTKKYGEKRPVD | soluble
MGHHHHHHSHMFQRLNKMFVGEVSSSSNQEPEFNEKEDDEWILVDFIDTCTGFSAEEEEEEEDISEESPTEHPSVFSCLPASLECLADTSDSCFLQFESCPMEESWFITPPPCFTAGGLTTIKVETSPMENLLIEHPSMSVYAVHNSCPGLSEATRGTDELHSPSSPRVEAQNEMGQHIHCYVAALAAHTTFLEQPKSFRPSQWIKEHSERQPLNRNSLRRQNLTRDCHPRQVKHNGWVVHQPCPRQYNY | not soluble
GSPGHMSGFRDFLLKPELLRAIVDCGFEHPSEVQHECIPQAILGMDVLCQAKSGMGKTAVFVLATLQQLEPVTGQVSVLVMCHTRELAFQISKEYERFSKYMPNVKVAVFFGGLSIKKDEEVLKKNCPHIVVGTPGRILALARNKSLNLKHIKHFILDEADKMLEQLDMRRDVQEIFRMTPHEKQVMMFSATLSKEIRPVCRKFMQDPMEIFVDDETKLTLHGLQQYYVKLKDNEKNRKLFDLLDVLEFNQVVIFVKSVQRCIALAQLLVEQNFPAIAIHRGMPQEERLSRYQQFKDFQRRILVATNLFGRGMDIERVNIAFNYDMPEDSDTYLHRVARAGRFGTKGLAITFVSDENDAKILNDVQDRFEVNISELPDEIDISSYIEQTR | soluble
SKGQQKTAETEEGTVQIQEGAVATGEDPTSVAIASIQSAATFPDPNVKYVFRTENGGQVMYRVIQVSEGQLDGQTEGTGAISGYPATQSMTQAVIQGAFTSDDAVDTEGTAAETHYTYFPSTAVGDGAGGTTSGSTAAVVTTQGSEALLGQATPPGTGQFFVMMSPQEVLQGGSQRSIAPRTHPYSPKSEAPRTTRDEKRRAQHNEVERRRRDKINNWIVQLSKIIPDCSMESTKSGQSKGGILSKACDYIQELRQSNHRLSEELQGLDQLQLDNDVLRQQVEDLKNKNLLLRAQLRHHGLEVVIKNDSN | soluble
GVEIETISPGDGRTFPKKGQTCVVHYTGMLQNGKKFDSSRDRNKPFKFRIGKQEVIKGFEEGAAQMSLGQRAKLTCTPDVAYGATGHPGVIPPNATLIFDVELLNLE | soluble
SRDIRFANHETLQVIYPYTPQNDDELELVPGDFIFMSPMEQTSTSEGWIYGTSLTTGCSGLLPENYITKADECSTWIFHGS | soluble
MTSRRDWQLQQLGITQWSLRRPGALQGEIAIAIPAHVRLVMVANDLPALTDPLVSDVLRALTVSPDQVLQLTPEKIAMLPQGSRCNSWRLGTDEPLSLEGAQVASPALTELRANPTARAALWQQICTYEHDFFPRND | not soluble
